Sequences of proteins named here, by UniProt entry; tags and fusion partners are left off. Residues count along the entry.
UniProt C0HJB3, 1-562 limits assumed: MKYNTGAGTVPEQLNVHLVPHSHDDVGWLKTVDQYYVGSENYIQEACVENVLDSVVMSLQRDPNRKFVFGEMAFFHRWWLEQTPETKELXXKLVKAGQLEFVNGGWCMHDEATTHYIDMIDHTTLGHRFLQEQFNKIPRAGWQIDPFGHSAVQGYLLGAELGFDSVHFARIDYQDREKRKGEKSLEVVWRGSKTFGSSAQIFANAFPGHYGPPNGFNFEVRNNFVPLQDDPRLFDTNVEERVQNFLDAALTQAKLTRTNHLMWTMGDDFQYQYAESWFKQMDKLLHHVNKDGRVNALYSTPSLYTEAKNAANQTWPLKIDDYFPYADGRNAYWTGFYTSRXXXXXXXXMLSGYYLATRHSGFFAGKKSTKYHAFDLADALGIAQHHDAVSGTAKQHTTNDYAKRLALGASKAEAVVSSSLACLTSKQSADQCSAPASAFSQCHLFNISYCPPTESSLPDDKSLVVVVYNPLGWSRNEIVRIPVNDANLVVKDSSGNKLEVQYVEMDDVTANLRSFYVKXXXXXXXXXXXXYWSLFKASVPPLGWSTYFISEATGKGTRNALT
UniProt C0HJB3, 563-981 limits assumed: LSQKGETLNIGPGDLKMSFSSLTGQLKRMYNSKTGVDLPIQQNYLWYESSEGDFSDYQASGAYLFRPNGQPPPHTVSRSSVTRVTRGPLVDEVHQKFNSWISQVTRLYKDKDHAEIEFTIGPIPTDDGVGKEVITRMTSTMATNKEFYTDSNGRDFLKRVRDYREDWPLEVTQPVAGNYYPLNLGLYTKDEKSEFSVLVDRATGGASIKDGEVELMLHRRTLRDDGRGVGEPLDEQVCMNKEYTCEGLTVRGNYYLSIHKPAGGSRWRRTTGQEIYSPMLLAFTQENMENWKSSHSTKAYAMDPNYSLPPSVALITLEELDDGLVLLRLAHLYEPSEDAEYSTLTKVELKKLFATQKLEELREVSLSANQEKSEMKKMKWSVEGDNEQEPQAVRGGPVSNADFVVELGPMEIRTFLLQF

According to publication PMC7694328, “Synthesis and Glycosidase Inhibition Properties of Calix[8]arene-Based Iminosugar Click Clusters” (Pharmaceuticals, 2020):

Target: Jack Bean α-mannosidase (JBα-man) (Canavalia ensiformis, UniProt C0HJB3)
Assay: Inhibition assay against Jack Bean α-mannosidase (hydrolysis of p-nitrophenyl-α-D-mannopyranoside)
Conditions: for Ki: means ± SD, triplicate; for rp/n (relative inhibition potency per DNJ unit): rp/number of DNJ units
Protocol: p-nitrophenyl-α-D-mannopyranoside and α-mannosidase (EC 3.2.1.24, from Jack Bean, Km = 2.0 mM pH 5.5) were purchased from Sigma Aldrich(St. Louis, MO, USA).
General procedure for Inhibition assay with basic quench: Inhibitory potencies were determined spectrophotometrically (Versamax 96-well plate spectrophotometer, Molecular Devices Corporation, Sunnyvale, CA, USA) measuring the residual hydrolytic activities of the mannosidase against p-nitrophenyl-α-D-mannopyranoside in the presence and absence of the inhibitor. All kinetics were performed at 25 °C and started by enzyme addition (0.015 U/mL) in a 100 µL assay medium (acetate buffer, 0.2 M, pH = 5) containing substrate (varying concentration from Km/8 to 2Km value) in presence or absence of various concentrations of inhibitor. After 40–50 min incubation, the reaction was quenched by addition of 1M Na2CO3 (100 µL). The absorbance of the resulting solution was determined at 405 nm. Ki values were determined in duplicate or triplicate, using the Dixon and Lineweaver–Burk graphical methods with Microsoft Excel 97-03, or using non-linear regression with GraphPad Prism 7 Software. As the inhibitors are only partially soluble in water, they were dissolved in DMSO for concentrated mother solutions and DMSO/buffer for diluted solutions with a final DMSO concentration under 4% in all wells. Previously, the stability of the enzymes in presence of various concentrations of DMSO was controlled and the enzyme activity was unaffected.
General procedure for inhibition assay measured continuously: The release of p-nitrophenol was measured continuously at 385 nm to determine initial velocities. All kinetics were performed at 35 °C and started by substrate addition in a 1 mL assay medium (acetate buffer, 0.2 M, pH = 5) containing α-mannosidase (0.025 U/mL), substrate (varying concentration from Km/4 to Km value) in presence or absence of various concentrations of inhibitor. Under these conditions, the p-nitrophenolate released led to optical densities linear with both reaction time and concentration of the enzyme. Ki values were determined in duplicate or quadruplate, using the Dixon graphical method. As the inhibitors are only partially soluble in water, they were dissolved in DMSO for concentrated mother solutions and DMSO/buffer for diluted solutions with a final DMSO concentration under 5% in all vials. Previously, the stability of the enzymes in presence of various concentrations of DMSO was controlled and the enzyme activity was unaffected.

| inhibition mode | Ki | rp/n (relative inhibition potency per DNJ unit) | SMILES |
| --- | --- | --- | --- |
| competitive inhibitors | 80000 nM | – | CC(C)(C)c1cc2c(OCc3cn(CCCCCCN4C[C@H](O)[C@@H](O)[C@H](O)[C@H]4CO)nn3)c(c1)Cc1cc(C(C)(C)C)cc(c1OCc1cn(CCCCCCN3C[C@H](O)[C@@H](O)[C@H](O)[C@H]3CO)nn1)Cc1cc(C(C)(C)C)cc(c1OCc1cn(CCCCCCN3C[C@H](O)[C@@H](O)[C@H](O)[C@H]3CO)nn1)Cc1cc(C(C)(C)C)cc(c1OCc1cn(CCCCCCN3C[C@H](O)[C@@H](O)[C@H](O)[C@H]3CO)nn1)Cc1cc(C(C)(C)C)cc(c1OCc1cn(CCCCCCN3C[C@H](O)[C@@H](O)[C@H](O)[C@H]3CO)nn1)Cc1cc(C(C)(C)C)cc(c1OCc1cn(CCCCCCN3C[C@H](O)[C@@H](O)[C@H](O)[C@H]3CO)nn1)Cc1cc(C(C)(C)C)cc(c1OCc1cn(CCCCCCN3C[C@H](O)[C@@H](O)[C@H](O)[C@H]3CO)nn1)Cc1cc(C(C)(C)C)cc(c1OCc1cn(CCCCCCN3C[C@H](O)[C@@H](O)[C@H](O)[C@H]3CO)nn1)C2 |
| competitive inhibitors | 380 nM | 82 | CC(C)(C)c1cc2c3c(c1)Cc1cc(C(C)(C)C)cc(c1OCc1cn(CCCCCCCCCN4C[C@H](O)[C@@H](O)[C@H](O)[C@H]4CO)nn1)Cc1cc(C(C)(C)C)cc(c1OCc1cn(CCCCCCCCCN4C[C@H](O)[C@@H](O)[C@H](O)[C@H]4CO)nn1)Cc1cc(C(C)(C)C)cc(c1OCc1cn(CCCCCCCCCN4C[C@H](O)[C@@H](O)[C@H](O)[C@H]4CO)nn1)Cc1cc(C(C)(C)C)cc(c1OCc1ccc(cc1)CO3)Cc1cc(C(C)(C)C)cc(c1OCc1cn(CCCCCCCCCN3C[C@H](O)[C@@H](O)[C@H](O)[C@H]3CO)nn1)Cc1cc(C(C)(C)C)cc(c1OCc1cn(CCCCCCCCCN3C[C@H](O)[C@@H](O)[C@H](O)[C@H]3CO)nn1)Cc1cc(C(C)(C)C)cc(c1OCc1cn(CCCCCCCCCN3C[C@H](O)[C@@H](O)[C@H](O)[C@H]3CO)nn1)C2 |
| competitive inhibitors | 320 nM | 73 | CC(C)(C)c1cc2c(OCc3cn(CCCCCCCCCN4C[C@H](O)[C@@H](O)[C@H](O)[C@H]4CO)nn3)c(c1)Cc1cc(C(C)(C)C)cc(c1OCc1cn(CCCCCCCCCN3C[C@H](O)[C@@H](O)[C@H](O)[C@H]3CO)nn1)Cc1cc(C(C)(C)C)cc(c1OCc1cn(CCCCCCCCCN3C[C@H](O)[C@@H](O)[C@H](O)[C@H]3CO)nn1)Cc1cc(C(C)(C)C)cc(c1OCc1cn(CCCCCCCCCN3C[C@H](O)[C@@H](O)[C@H](O)[C@H]3CO)nn1)Cc1cc(C(C)(C)C)cc(c1OCc1cn(CCCCCCCCCN3C[C@H](O)[C@@H](O)[C@H](O)[C@H]3CO)nn1)Cc1cc(C(C)(C)C)cc(c1OCc1cn(CCCCCCCCCN3C[C@H](O)[C@@H](O)[C@H](O)[C@H]3CO)nn1)Cc1cc(C(C)(C)C)cc(c1OCc1cn(CCCCCCCCCN3C[C@H](O)[C@@H](O)[C@H](O)[C@H]3CO)nn1)Cc1cc(C(C)(C)C)cc(c1OCc1cn(CCCCCCCCCN3C[C@H](O)[C@@H](O)[C@H](O)[C@H]3CO)nn1)C2 |
